Chains of the proteins cited; added tags and fusions are not shown. Residues count along the entry.
UniProt P23219, 24-599: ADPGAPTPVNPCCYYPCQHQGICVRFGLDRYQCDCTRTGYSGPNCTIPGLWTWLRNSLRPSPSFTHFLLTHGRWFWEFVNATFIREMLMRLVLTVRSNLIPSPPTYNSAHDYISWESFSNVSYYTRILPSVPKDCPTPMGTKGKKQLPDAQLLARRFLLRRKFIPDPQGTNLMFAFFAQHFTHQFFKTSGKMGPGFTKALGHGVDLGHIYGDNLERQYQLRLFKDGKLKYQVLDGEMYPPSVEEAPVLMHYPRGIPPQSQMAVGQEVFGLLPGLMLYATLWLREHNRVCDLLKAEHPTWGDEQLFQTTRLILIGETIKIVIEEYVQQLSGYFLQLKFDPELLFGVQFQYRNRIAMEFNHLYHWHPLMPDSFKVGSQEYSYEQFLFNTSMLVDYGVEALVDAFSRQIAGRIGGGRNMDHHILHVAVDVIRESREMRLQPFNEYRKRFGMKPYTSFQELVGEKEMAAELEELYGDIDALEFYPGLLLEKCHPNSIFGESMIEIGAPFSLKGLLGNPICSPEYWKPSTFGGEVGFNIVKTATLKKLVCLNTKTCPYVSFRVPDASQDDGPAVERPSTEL

In patent US7989450B2, “Functionalized diarylisoxazoles inhibitors of ciclooxygenase” (Universita' Degli Studi Di Bari, priority 2008, dated 2011):

Molecular target: platelet COX-1 (Homo sapiens, UniProt P23219)
Experiment: Biosynthesis of TXB2 in human whole blood left to coagulate, index of platelet COX-1 activity
Settings: read-out: COX-1 IC50; human whole blood method, coagulation 1 hour at 37° C., TXB2 by RIA

Question: With `Cc1onc(-c2ccccc2)c1-c1ccc(S(N)(=O)=O)cc1` [Valdecoxib, reference compound] as the molecule, how does the IC50 read?
Answer: 27 µM
